These are literature values, as cited in patent US11311631B2, “Paclitaxel-albumin-binding agent compositions and methods for using and making the same” (Mayo Foundation for Medical Education and Research, priority 2016, dated 2022).

The series concerns cells, including cancer cells and normal cells. As to conditions: attributed to breaking of the C-4,C-5 oxetane ring; no test described by the applicant; cited from earlier work.

As to “20-Acetoxy-4-deactyl-5-epi-20, O-secotaxol [Meerwein Product of Paclitaxel]”, the “toxicity compared to paclitaxel” value is listed as “significantly reduced toxicity”.
